Laboratory results taken from patent publication US11517598B2 (priority 2016, dated 2022).

How the values were obtained:
CT26WT tumors = test: CT26WT syngeneic tumour model (remission, re-challenge, bio-distribution, tumoral T-cells); format: in vivo, mouse; conditions: for virus in major organs (bio-distribution, plaque assay): 40 mg/kg intratumoral plus VSVΔ51, 1, 2 or 3 days post infection; for complete remission: CT26WT, combination with VSVΔ51
CT26-LacZ tumors = test: CT26-LacZ tumours in immunocompetent mice; format: in vivo, mouse
[1] = test system: cytokine, chemokine and IFN stimulated gene expression in 786-0 cells; test: Gene expression microarray and qPCR in 786-0 cells; format: cell-based, human; conditions: 786-0, 150 uM, VSVΔ51 MOI 0.01, 24 h
[2] = test system: human HT29 colon cancer cells; test: HT29 tumours in nude mice
786-0 cells = test: Cell viability assay (alamarBlue) in 786-0 cells; conditions: 786-0, 48 h, one round of infection
[3] = test system: CXCL9 mRNA in CT26WT cells; test: qPCR of cytokines and chemokines in CT26WT cells

Substance: Sodium orthovanadate
- virus in major organs (bio-distribution, plaque assay) (CT26WT tumors): doesn't induce spread of virus to major organs
- virus in major organs (bio-distribution, plaque assay) (CT26WT tumors; listed as orthovanadate): no virus was detected in major organs
- complete remission (CT26WT tumors): approximately 20%
- complete remission (CT26WT tumors; listed as orthovanadate): 20%
- survival, combination with VSVΔ51 (CT26-LacZ tumors): significant improvement of survival over the monotherapies
- gene set-enrichment (GOrilla), combination with VSVΔ51 [1]: further potentiated in combination with VSVΔ51
- VSVΔ51 viral growth in tumour [2]: enhanced VSVΔ51 viral growth
- survival, combination with VSVΔ51 [2]: no improvements in survival
- cell death with VSVΔ51 G-less (786-0 cells): increased 786-0 cell death was also observed
- CXCL9 mRNA expression ([3]; with VSVΔ51): vanadate-mediated increase in mRNA expression
- CXCL9 mRNA expression ([3]; with VSVΔ51, listed as orthovanadate): synergistic up-regulation of CXCL9
